Tests used:
[1] = system: chronic hepatitis B; experiment: Intermittent administration of Pegberon with ETV in chronic hepatitis B patients (Example 2); format: in vivo, human; conditions: one patient
Procedure: The process was repeated in the next stage.
The nucleotide analogue ETV was administrated orally in 0.5 mg per day.
It is shown that the recovery of immune clearance capability may have achieved in the 5 weeks during which the administration is discontinued.
The nucleotide analogue ETV was administrated in 0.5 mg per day.

[2] = system: chronic hepatitis B; conditions: e-antigen-positive chronic hepatitis B patients; cited from earlier work
[3] = system: chronic hepatitis B; experiment: Conventional continuous interferon therapy of chronic hepatitis B, surface antigen-time curve (Example 1); format: in vivo, human; conditions: 180 micrograms per week, continuous for 48 weeks
Procedure: These patients were treated continuously according to the treatment scheme stated in the drug instructions. The treatment scheme of Pegasys: continuous treatment was performed with solely Pegasys in a dosage of 180 micrograms per week for 48 weeks.
Continuous use of interferon for more than 12 weeks or more than 24 weeks may cause partial immune suppression and exhaustion of immune cells, which may lead to poor follow-up treatment effects.

In the case of “Pegberon: Y-type 40 Kd PEG modified peginterferon α 2b, Amoytop”, the “decline in surface antigens, Week 53 to Week 65 compared with Week 36 to Week 48” value ([1]; Pegberon 180 micrograms per week Week 0-48, suspended, resumed Week 53-61, ETV 0.5 mg per day since Week 49) is listed as “significantly faster”, the surface antigens ([1]; Week 76-80, Pegberon 180 micrograms per week intermittently, combined with ETV 0.5 mg per day) is listed as “less than 0.05” and the e-antigen seroconversion [2] is listed as “about 30%”. The “decline of surface antigens” value [3] was “faster decline in the early stage and slower decline in the later stage”.
